Results published in PMC2009863, “Pharmacokinetic considerations in testing hypoxic cell radiosensitizers in mouse tumours” (British Journal of Cancer, 1979).
“And” between values parts separate entries of the source, which are not always exact repeats. Equal values may be shown once.

How the values were obtained:
mice = experiment: Acute toxicity LD50/2d of MIS and Ro-05-9963; settings: normal mice
Source text: (§1) Several groups are now pursuing such a goal (Adams, 1977; Brown et al., 1978; Wardman, 1977). […] Specifically the two ques- tions were: (a) How much does the plasma half-life affect the peak plasma level? (b) How much does the plasma half-life affect the tumour/plasma ratio of drug concentrations? MATERIALS AND METHODS A description of the procedures for implanta- tion of tumours, and irradiation and assay of the viability of the tumour cells has been published previously (Brown, 1975). Brieflv, the EMT6/St/lu tumour was transplanted into 3-month-old, syngeneic BALB/c female mice, weighing 20-25 g, and irradiated at a diameter of 6-7 mm. Immediately after irradiation the tumours were removed and minced. The only modification was that the single-cell suspensions were prepared by a 30 min disaggregation using an enzyme "'cock- tail" of 0-05% pronase, 0.02% DNAase and 21 0 02% collagenase (Brown et al., in prepara- tion). Cell viability was assayed by plating appropriate dilutions of the tumour cells into Waymouth's medium containing 15% foetal calf serum in polystyrene Petri dishes, and counting colonies 13 days later. […] Plasma (or whole blood) and tumour levels of 2-nitroimidazoles were determined in different ways in the two laboratories rep- resented.

[1] = Plasma and tumour levels of total 2-nitroimidazoles, UV spectrophotometric assay at 318 nm, EMT6 tumour-bearing mice, normal or bilateral kidney ligation; settings: for Tumour/Plasma: individual mice
Source text: Several groups are now pursuing such a goal (Adams, 1977; Brown et al., 1978; Wardman, 1977). […] Specifically the two ques- tions were: (a) How much does the plasma half-life affect the peak plasma level? (b) How much does the plasma half-life affect the tumour/plasma ratio of drug concentrations? MATERIALS AND METHODS A description of the procedures for implanta- tion of tumours, and irradiation and assay of the viability of the tumour cells has been published previously (Brown, 1975). Brieflv, the EMT6/St/lu tumour was transplanted into 3-month-old, syngeneic BALB/c female mice, weighing 20-25 g, and irradiated at a diameter of 6-7 mm. Immediately after irradiation the tumours were removed and minced. The only modification was that the single-cell suspensions were prepared by a 30 min disaggregation using an enzyme "'cock- tail" of 0-05% pronase, 0.02% DNAase and 21 0 02% collagenase (Brown et al., in prepara- tion). Cell viability was assayed by plating appropriate dilutions of the tumour cells into Waymouth's medium containing 15% foetal calf serum in polystyrene Petri dishes, and counting colonies 13 days later. […] Bilateral kidney ligation was performed on anaesthetized mice by exteriorizing the kidneys through a 1 cm incision in the skin and abdominal wall and tying a ligature around the renal artery and vein at the renal pelvis. The abdominal incision, which was adjoining and parallel to the line of attach- ment of the abdominal wall with the dorsal muscles, was then closed tightly with 4 or 5 stitches, and the skin incision closed with metal clips. The sham operation was identical in all respects except for ligation of the renal artery and vein. […] Plasma (or whole blood) and tumour levels of 2-nitroimidazoles were determined in different ways in the two laboratories rep- resented.

EMT6/St/lu tumour = experiment: Radiosensitization of hypoxic tumour cells in vivo, cell survival after 1750 rad; set-up: species or system mouse; settings: 2.5 mmol/kg, kidney ligation No
Source text: as §1

[2] = 38 min after injection, normal mice, equimolar doses
[3] = Table II, 5 mmol/kg, BKL No, 38 min after injection
[4] = Table II, 5 mmol/kg, BKL Yes, 38 min after injection
[5] = Table II, 5 mmol/kg, BKL Yes, 6 h after injection

**Q.** For `O=[N+]([O-])c1nccn1CC(O)CO` (centres unmarked) [Ro-05-9963, 1-(2-nitroimidazol-1-yl)-2,3-pro-pandiol], which “acute LD50 relative to that of MIS” value (mice) is on record?
**A.** twice

**Q.** And the “LD50/2d (and 95% confidence intervals)” value (mice; Stanford, same experiment)?
**A.** 3104 (2212-4355) mg/kg

**Q.** What about the “plasma level relative to MIS” value [1, 2] of the same molecule?
**A.** less than 50%

**Q.** What about the “tumour level relative to MIS” value [1, 2] of the same molecule?
**A.** less than 50%

**Q.** What about the tumour/plasma ratio ([1]; EMT6 tumour, both normal and kidney-ligated mice) of the same molecule?
**A.** 50-70% and 60-70%

**Q.** What about the Tumour/Plasma ([1]; Table I, 5 mmol/kg i.p., 30 min after inj.) of the same molecule?
**A.** 0-46

**Q.** And the Tumour/Plasma ([1]; Table I, 5 mmol/kg i.p., 37.5 min after inj.)?
**A.** 0-66 and 0-72

**Q.** What about the Tumour/Plasma ([1]; Table I, 5 mmol/kg i.p., 45 min after inj.) of the same molecule?
**A.** 0-51 and 0-66 and 0-62

**Q.** What about the “Tumour/Plasma, Mean” value [1, 3] of the same molecule?
**A.** 0-71

**Q.** And the “Tumour/Plasma, Mean” value [1, 4]?
**A.** 0-61

**Q.** And the “Tumour/Plasma, Mean” value [1, 5]?
**A.** 0-60

**Q.** And the Tumour/Plasma [1, 3]?
**A.** 0-57 and 0-49 and 1-22 and 0-60 and 0-67 and 0-71

**Q.** What about the Tumour/Plasma [1, 4] of the same molecule?
**A.** 0-85 and 0-66 and 0-80 and 0-47 and 0-55

**Q.** And the Tumour/Plasma [1, 5]?
**A.** 0-36 and 0-90 and 0-50 and 0-62

**Q.** And the “peak tumour levels relative to equimolar injected doses of MIS” value ([1]; normal mice, EMT6 tumour)?
**A.** ≤ 50%

**Q.** What about the “peak plasma concentration relative to equimolar injected dose of MIS” value ([1]; normal mice, Fig. 1) of the same molecule?
**A.** ~50%

**Q.** What about the “Survival ratio (drug-injected / saline-injected)” value (EMT6/St/lu tumour) of the same molecule?
**A.** 0-102
